Laboratory results published in patent publication US11059822B2, “MAGL inhibitors” (H. LUNDBECK A/S, priority 2016, dated 2021).

Sequences of proteins named here, by UniProt entry; tags and fusion partners are left off.
UniProt O35678, whole entry: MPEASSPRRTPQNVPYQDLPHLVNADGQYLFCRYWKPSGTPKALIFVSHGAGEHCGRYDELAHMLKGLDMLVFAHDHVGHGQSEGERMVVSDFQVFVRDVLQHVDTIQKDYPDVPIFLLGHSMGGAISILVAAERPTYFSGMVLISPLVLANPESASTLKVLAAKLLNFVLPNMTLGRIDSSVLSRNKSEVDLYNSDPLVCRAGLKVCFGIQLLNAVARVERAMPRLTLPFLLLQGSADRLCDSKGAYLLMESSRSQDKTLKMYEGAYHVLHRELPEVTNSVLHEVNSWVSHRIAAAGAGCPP

Target: MAGL (Mus musculus (Mouse), UniProt O35678)
Experiment: in vivo
Conditions: po, read-out: MAGL % inh. 5 mg/kg (mouse)

In the case of `O=C(O)CCNc1cc(Cl)cc(CN2CCCC23CCN(C(=O)OC(C(F)(F)F)C(F)(F)F)CC3)c1` [Example 12, 3-((3-Chloro-5-((8-(((1,1,1,3,3,3-hexafluoropropan-2-yl)oxy)carbonyl)-1,8-diazaspiro[4.5]decan-1-yl)methyl)phenyl)amino)propanoic acid], the inhibition at 5 mg/kg is reported as > 75%.
